Test results from PMC6929975, “A supramolecular protein chaperone for vaccine delivery” (Theranostics, 2020).

Key:
splenocytes = details: 80 µg/mL
[1] = system: Raw 264.7 mouse macrophages; details: 80 µg/mL

Fbp-G^DF^DF^DY [Comp. 2]
cell viability, splenocytes (splenocytes): did not remarkably reduce the cell viability | cell viability, Raw 264.7 [1]: did not remarkably reduce the cell viability
